Sampled rows, rich in hits. Any-hit rate of the full collection: about 1.2%.
Rce1 inhib: yeast Rce1p protease inhibitors, primary screen, biochemical, fluorescence, cell-free homogeneous. CAAX prenyl protease 2 (Saccharomyces cerevisiae (strain ATCC 204508 / S288c)), Q03530. yeast membranes, quenched prenylated peptide cleavage fluorescence. calls only. 0.27% of 290,000 active. AID 2563, 2010;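 active means fall in fluorescence gain of 50% or more versus controls, with final raw signal at or below 3038400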;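 further: plate controls were neutral control wells for no effect and wells lacking membranes for full effect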
TbMetRS inhib: T. brucei MetRS inhibitors, primary screen, biochemical, luminescence; methionyl-tRNA synthetase (Trypanosoma brucei brucei); purified T. brucei MetRS, ATP depletion, Kinase-Glo luminescence; inhibition, % at 11.9 µM; 0.4% of 360,000 active; AID 624268, 2012;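 active means inhibition above a per-plate cutoff of the control wells' mean inhibition plus 3 SD, cut at about 5.5% in these data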;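 further: 0% = DMSO wells median and 100% = median of wells with control inhibitor compound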
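Dosing: 11.9 µM compound single dose, 0.9% DMSO; Assay system: purified T. brucei MetRS enzyme; Measured by: Kinase-Glo luciferase luminescence reporting remaining unconsumed ATP; Schedule: 15 min plus 2 h at 25 °C.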
Arrestin-AP2 inh: inhibitors of beta-arrestin/AP2 binding, primary screen, biochemical, GPCR trafficking, flow cytometry | 0.31% of 340,000 active | AID 504490, 2011 | FITC-arrestin peptide / GST-AP2 beads; AP2 beta2 appendage carries R879A mutation | inhibition, % at 10 µM | beta-arrestin 1 C-terminal peptide binding to AP2 beta2-adaptin appendage (human);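 active means inhibition above a set limit, near 3 SD of compounds lacking own fluorescence, cut at about 54% in these data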;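 further: plate controls were DMSO wells for no effect and 5 µM unlabelled arrestin peptide for full effect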
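system = GST-tagged AP2 beta2-adaptin appendage (R879A) on 4 µm glutathione beads | reagent = FITC-labelled arrestin peptide probe, 50 nM final | schedule = compound with beads 12 min RT, then probe 1 h RT | signal = HyperCyt-sampled flow cytometry, FL1 channel, ex 488/em 535 nm | read-out = percent response from loss of bead-bound FITC fluorescence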
Yeast UUG start-1: alters start codon recognition fidelity in yeast. S. cerevisiae UUG-firefly luciferase reporter, luminescence/redox ratio. AID 602363. activity score, % at 18.7 µM. hit rate 0.13% among 350,000;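 active = replicate mean at a twofold rise or more, about +100% in these data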;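 note: firefly luciferase made from a UUG start codon reports start codon fidelity; reporter light over untreated wells divided by growth signal over untreated wells; some hits fall short of that in this replicate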
DSG3 Ab inh: inhibitors of pemphigus antibody binding to DSG3, primary screen, biochemical, bead-based, flow cytometry, scFv-GFP; AID 588358, 2011; Desmoglein-3 (Homo sapiens), P32926; 0.48% of 310,000 active; DSG3-coupled beads, scFv-anti-DSG3-GFP binding; stronger effect = lower value; binding (percent of control), % at 10 µM;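 active means binding more than 3 SD below its plate's average and above zero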;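 further: hits lower antibody fragment binding to DSG3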
Yeast UUG start-2: enhancers of UUG start codon usage in yeast, dose response, S. cerevisiae, UUG firefly luciferase, cherry-pick, set 2; shares compounds with Yeast UUG start-1; 540 tested, under 10 active; luminescence, 4 h; 100% means double the DMSO signal; activation, % at 38 µM; AID 652061, 2013;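 active means signal increase whose fitted curve reaches an absolute level of 40 at a concentration under 10 µM; inactive means activity opposite to the expected increase, or the rest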
* marks the source's active call; other numbers are inactive results; i = inactive; / = no result; ! = not confirmed by another sample.

Screens in order: Rce1 inhib	TbMetRS inhib	Arrestin-AP2 inh	Yeast UUG start-1	DSG3 Ab inh	Yeast UUG start-2
1	C[C@@H]1CN([C@@H](C)CO)S(=O)(=O)c2ccc(C#CCN(C)C)cc2O[C@H]1CN(C)Cc1ccccc1
    /	/	/	-4.1	/	/
2	Cc1cc(=O)[nH]c(=O)n1Cc1ccccc1
    i	-0.7	21.3	195.8*	/	1.4
3	C[C@H]1CN([C@@H](C)CO)C(=O)Cc2cc(NC(=O)NC3CCCCC3)ccc2O[C@@H]1CN(C)C(=O)Nc1ccc(F)cc1
    /	/	/	20.3	/	/
4	CC(C)CC#Cc1ccc([C@H]2[C@@H](CO)N3CCCCN(S(=O)(=O)c4ccc(F)cc4)C[C@H]23)cc1
    /	/	/	81.4*	/	i
5	CNC[C@@H]1Oc2cc(C#CC3CCCCC3)ccc2S(=O)(=O)N([C@@H](C)CO)C[C@@H]1C
    /	/	/	0.8	/	/
6	C[C@@H]1CN([C@H](C)CO)S(=O)(=O)c2ccc(C#CCC3CCCC3)cc2O[C@@H]1CN(C)C(=O)c1cnccn1
    /	/	/	2.4	/	/
7	C[C@@H]1CN([C@H](C)CO)S(=O)(=O)c2ccc(C#CCC3CCCC3)cc2O[C@H]1CN(C)C(=O)CN(C)C
    /	/	/	111.8*	/	i
8	C[C@H](CO)N1C[C@H](C)[C@H](CN(C)Cc2ccc(C(=O)O)cc2)Oc2cc(C#CCC3CCCC3)ccc2S1(=O)=O
    /	/	/	182.0*	/	i
9	C[C@@H]1CN([C@@H](C)CO)S(=O)(=O)c2ccc(C#CCC3CCCC3)cc2O[C@@H]1CN(C)Cc1ccc(C(=O)O)cc1
    /	/	/	5.8	/	/
10	C[C@H](CO)N1C[C@H](C)[C@@H](CN(C)C(=O)c2cnccn2)Oc2cc(C#CCC3CCCC3)ccc2S1(=O)=O
    /	-0.3	/	120.8*!	102.2	-7.2
11	C[C@H]1CN([C@@H](C)CO)S(=O)(=O)c2ccc(C#CCC3CCCC3)cc2O[C@@H]1CN(C)C(=O)CN(C)C
    /	/	/	32.5	/	/
12	CNC[C@H]1Oc2cc(C#CC3CCCCC3)ccc2S(=O)(=O)N([C@H](C)CO)C[C@@H]1C
    /	/	/	160.5*	/	i
13	O=C(Nc1ccc2c(c1)[C@@H]1C[C@@H](CC(=O)N3CCc4ccccc4C3)O[C@H](CO)[C@@H]1O2)C1CCC1
    /	/	/	-6.1	/	/
14	C[C@H]1CN([C@@H](C)CO)C(=O)c2cc(NS(=O)(=O)c3ccc(Cl)cc3)ccc2O[C@H]1CN(C)S(=O)(=O)c1cn(C)cn1
    /	/	/	8.0	/	/
15	O=C(C[C@@H]1CC[C@H]2[C@@H](COC[C@@H](O)CN2C(=O)c2ccc(F)cc2)O1)NCCCN1CCOCC1
    /	/	/	22.3	/	/

By substructure: the compounds so far with fluorine.
Screens in order: Rce1 inhib	TbMetRS inhib	Arrestin-AP2 inh	Yeast UUG start-1	DSG3 Ab inh	Yeast UUG start-2
3	C[C@H]1CN([C@@H](C)CO)C(=O)Cc2cc(NC(=O)NC3CCCCC3)ccc2O[C@@H]1CN(C)C(=O)Nc1ccc(F)cc1
    /	/	/	20.3	/	/
4	CC(C)CC#Cc1ccc([C@H]2[C@@H](CO)N3CCCCN(S(=O)(=O)c4ccc(F)cc4)C[C@H]23)cc1
    /	/	/	81.4*	/	i
15	O=C(C[C@@H]1CC[C@H]2[C@@H](COC[C@@H](O)CN2C(=O)c2ccc(F)cc2)O1)NCCCN1CCOCC1
    /	/	/	22.3	/	/

Next structures:
Screens in order: Rce1 inhib	TbMetRS inhib	Arrestin-AP2 inh	Yeast UUG start-1	DSG3 Ab inh	Yeast UUG start-2
16	O=C(C[C@H]1CC[C@H](NS(=O)(=O)c2ccccc2F)[C@H](CO)O1)NCCCN1CCOCC1
    /	/	/	0.5	/	/
17	C[C@H]1CN([C@@H](C)CO)C(=O)c2ccccc2-c2ccccc2CO[C@@H]1CN(C)C(=O)Oc1ccccc1
    /	/	/	11.2	/	/
18	Cc1cc(C)c(S(=O)(=O)N2CCN(S(=O)(=O)N3CCC(C)CC3)CC2)c(C)c1
    i	-0.4	-4.5	active	115.7	9.7
19	COc1ccc2oc(C(=O)OCC(=O)N3CCCCC3)c(C)c2c1
    i	-0.4	-0.5	-13.1	102.5	/
20	COc1ccc2oc(C(=O)OCC(=O)NCCc3ccccc3)c(C)c2c1
    i	-0.6	3.5	-9.1	95.4	0.3
21	CCOc1ccc2oc(C(=O)OCC(=O)NC(=O)NC)c(C)c2c1
    i	-0.3	0.1	-16.8	101.3	-4.2
22	COc1ccc2oc(C(=O)OCC(=O)N3CCN(C(C)=O)CC3)c(C)c2c1
    i	-0.4	-24.4	-4.1	99.6	1.4
23	C[C@@H]1CN([C@@H](C)CO)C(=O)c2cc(NC(=O)CCN3CCOCC3)ccc2O[C@H]1CN(C)Cc1ccccc1
    /	/	/	6.9	/	/
24	CN(C[C@H]1[C@@H](c2ccccc2)[C@H](CO)N1C(=O)C1CCC1)C(=O)c1ccccn1
    /	/	/	-6.7	/	/
25	C[C@@H]1CN([C@@H](C)CO)S(=O)(=O)c2ccc(-c3cccnc3)cc2O[C@H]1CN(C)C(=O)c1cccc(F)c1
    /	/	/	3.5	/	/
26	C[C@H]1CN([C@@H](C)CO)S(=O)(=O)c2ccc(-c3cccnc3)cc2O[C@@H]1CN(C)C(=O)c1cccc(F)c1
    /	/	/	213.8*	/	i
27	C[C@@H]1CN([C@H](C)CO)S(=O)(=O)c2ccc(-c3cccc(F)c3)cc2O[C@@H]1CN(C)S(=O)(=O)c1ccc(F)cc1
    /	/	/	-15.4	/	/
28	Cc1ccc(S(=O)(=O)N(C)C[C@H]2Oc3cc(-c4cccc(F)c4)ccc3S(=O)(=O)N([C@@H](C)CO)C[C@@H]2C)cc1
    /	/	/	106.1*	/	i
29	CC(C)CC#Cc1ccc2c(c1)O[C@@H](CN(C)C(=O)c1cccnc1)[C@@H](C)CN([C@@H](C)CO)S2(=O)=O
    /	/	/	121.2*	/	i
30	COCC(=O)N(C)C[C@@H]1Oc2ncc(C#Cc3ccc(OC)cc3)cc2C(=O)N([C@@H](C)CO)C[C@@H]1C
    /	/	/	12.3	/	/

Sorted by molar mass (high to low): some entries from above
Screens in order: Rce1 inhib	TbMetRS inhib	Arrestin-AP2 inh	Yeast UUG start-1	DSG3 Ab inh	Yeast UUG start-2
17	C[C@H]1CN([C@@H](C)CO)C(=O)c2ccccc2-c2ccccc2CO[C@@H]1CN(C)C(=O)Oc1ccccc1
    /	/	/	11.2	/	/
24	CN(C[C@H]1[C@@H](c2ccccc2)[C@H](CO)N1C(=O)C1CCC1)C(=O)c1ccccn1
    /	/	/	-6.7	/	/
22	COc1ccc2oc(C(=O)OCC(=O)N3CCN(C(C)=O)CC3)c(C)c2c1
    i	-0.4	-24.4	-4.1	99.6	1.4

Next section:
Screens in order: Rce1 inhib	TbMetRS inhib	Arrestin-AP2 inh	Yeast UUG start-1	DSG3 Ab inh	Yeast UUG start-2
31	Cc1ccc(-c2cnc3c(c2)C(=O)N([C@@H](C)CO)C[C@@H](C)[C@@H](CN(C)C(=O)Cc2ccccc2)O3)cc1
    /	/	/	-0.1	/	/
32	CCOC(=O)C1CCN(Cc2cnc(NC(=O)OC)s2)CC1
    i	-1.4	-8.3	-10.7	102.4	/
33	CCOC(=O)C1CCN(Cc2cnc(Oc3ccc(C(C)(C)C)cc3)s2)CC1
    i	-0.1	4.0	126.7*	106.1	4.0
34	O=S(=O)(N[C@H]1CC[C@@H](CCn2cc(-c3ccc(F)cc3)nn2)O[C@H]1CO)c1ccccc1F
    /	/	/	17.8	/	/
35	C[C@@H]1CN([C@@H](C)CO)C(=O)c2cc(C#CCC3CCCC3)cnc2O[C@@H]1CN(C)C(=O)CN(C)C
    /	/	/	124.5*	/	i
36	Cc1ccc(-c2cnc3c(c2)C(=O)N([C@@H](C)CO)C[C@@H](C)[C@H](CN(C)C(=O)CN(C)C)O3)cc1
    /	/	/	162.7*	/	i
37	Cc1ccc(S(=O)(=O)Nc2ccc3c(c2)C(=O)N([C@H](C)CO)C[C@H](C)[C@H](CN(C)C(=O)Nc2c(C)noc2C)OCCCC[C@@H](C)O3)cc1
    /	/	/	-7.8	/	/
38	COCC#Cc1ccc2c(c1)O[C@H](CN(C)C(=O)Nc1ccccc1F)[C@H](C)CN([C@H](C)CO)S2(=O)=O
    /	/	/	17.9	/	/
39	Cc1ccc(C2=NNC(c3cccc(F)c3)S2)cc1 (stereo not given)
    i	-0.2	-2.1	/	96.1	/
40	Fc1cccc(C2NN=C(c3ccccc3)S2)c1 (stereo not given)
    i	-0.7	-2.5	267.4*	87.2	-13.2

Screening results deposited in PubChem by several laboratories.
